Reference: US20230414735A1, “NEOANTIGENS AND METHODS OF THEIR USE” (priority 2016, published 2023)

Test system: HLA-A02:01+ T cells (CD8+ T cells)
Experiment: Immunogenicity assay: CD8+ T cell expansion with peptide-loaded monocyte-derived dendritic cells, multimer/tetramer staining
Assay type: cell-based, human
Conditions: HLA-A02:01^+ T cells co-cultured 10 days with peptide-loaded monocyte-derived dendritic cells; initial and validation multimer preparations; shown as examples of positive multimer staining (FIGS. 3-6)
Procedure: Immunogenicity assays are used to test the ability of each test peptide to expand T cells. Mature professional APCs are prepared for these assays in the following way. Monocytes are enriched from healthy human donor PBMCs using a bead-based kit (Miltenyi). Enriched cells are plated in GM-CSF and IL-4 to induce immature DCs. After 5 days, immature DCs are incubated at 37° C. with each peptide for 1 hour before addition of a cytokine maturation cocktail (GM-CSF, IL-1β, IL-4, IL-6, TNFα, PGE1β). Cells are incubated at 37° C. to mature DCs.
After maturation of DCs, PBMCs (either bulk or enriched for T cells) are added to mature dendritic cells with proliferation cytokines. Cultures are monitored for peptide-specific T cells using a combination of functional assays and/or tetramer staining Parallel immunogenicity assays with the modified and parent peptides allowed for comparisons of the relative efficiency with which the peptides expanded peptide-specific T cells.
Tetramer Staining. […] Cells are acquired on a FACS Calibur (Becton Dickinson) instrument, and are analyzed by use of Cellquest software (Becton Dickinson). […]
Immunogenicity assays were carried out to assess whether each peptide can elicit a T cell response by antigen-specific expansion. […] Several peptides from Table 3 were tested for their capacity to elicit CD8^+ T cell responses with multimer readouts as described. […]

KLVVVGACGV
antigen-specific (multimer-double-positive) CD8^+ T cells, multimer staining: antigen-specificity
